# Reference: patent US20210353621A1 (published 2021)
# Conditions: dogs, 3, 10 or 30 mg/kg oral once daily
compound,measurement,value
N#Cc1ccc(O[C@H]2CC[C@H](NC(=O)c3ccc(N4CCC(CN5CCN(c6cc7c(cc6F)C(=O)N(C6CCC(=O)NC6=O)C7=O)CC5)CC4)nn3)CC2)cc1Cl (stereo partly shown) [Compound (I-g)],reversible liver function enzyme elevation (considered non-adverse),observed in some mid- and high-dose animals
